Columns and labels:
[1] = logP of fragrance raw materials and fragrances

In the case of `CC(C)CC1CC(C)(O)CCO1` (racemic) [FLOROL ®, (+ −)-TETRAHYDRO-2-ISOBUTYL-4-METHYL-4(2H)-PYRANOL], the logP (physchem) is reported as 2.16.
In the case of `CC(=O)OC1CCCCC1C(C)(C)C` (racemic) [VERDOX™, (+ −)-2-TERT-BUTYL-1-CYCLOHEXYL ACETATE], the logP [1] is reported as 4.42.
`Cc1occc(=O)c1O` [CORPS PRALINE, 3-HYDROXY-2-METHYL-4(4H)-PYRANONE] showed a logP (physchem) of 0.09.

From patent US11504310B2, “Aqueous microemulsion” (Firmenich SA, priority 2017, dated 2022)
